Data published in US8828931B2, “Bifunctional molecules for inhibiting HIV entry” (priority 2008, dated 2014).

Tested on: HIV-1 IIIB-mediated cell fusion (H9/HIV-1 IIIB effector cells, MT-2 target cells)
Conditions: H9/HIV-1 IIIB and MT-2 cells, dye transfer
Protocol: HIV-1-mediated cell-cell fusion was determined by a dye transfer assay (Lu H et al. J Virol Methods 107:155-161, 2003) using Calcein AM-labeled HIV-1IIIB chronically infected H9 (H9/HIV-1 IIIB) cells as effector cells and MT-2 cells as target cells.

For `CC[C@H](C)[C@H](NC(=O)[C@H](CC(C)C)NC(=O)[C@H](CO)NC(=O)[C@H](Cc1c[nH]cn1)NC(=O)[C@@H](NC(=O)[C@H](CC(C)C)NC(=O)[C@H](CO)NC(=O)[C@@H](NC(=O)[C@H](Cc1ccc(O)cc1)NC(=O)[C@H](CC(N)=O)NC(=O)[C@H](CC(N)=O)NC(=O)[C@@H](NC(=O)[C@H](CCC(=O)O)NC(=O)[C@H](CCCNC(=N)N)NC(=O)[C@H](CC(=O)O)NC(=O)[C@H](Cc1c[nH]c2ccccc12)NC(=O)[C@H](C)NC(=O)[C@H](CCSC)NC(=O)[C@H](Cc1c[nH]c2ccccc12)NC(=O)[C@@H](NC(=O)[C@@H](N)[C@@H](C)O)[C@@H](C)O)[C@@H](C)CC)[C@@H](C)O)[C@@H](C)CC)C(=O)N[C@@H](CCCNC(=N)N)C(=O)N[C@@H](CCCNC(=N)N)C(=O)N[C@@H](CO)C(=O)N[C@@H](CCC(N)=O)C(=O)N[C@@H](CC(N)=O)C(=O)N[C@@H](CCC(N)=O)C(=O)N[C@@H](CCC(N)=O)C(=O)N[C@@H](CCC(=O)O)C(=O)N[C@@H](CCCCN)C(=O)N[C@@H](CC(N)=O)C(=O)N[C@@H](CCC(=O)O)C(=O)N[C@@H](CCC(N)=O)C(=O)N[C@@H](CCC(=O)O)C(=O)N[C@@H](CC(C)C)C(=O)N[C@@H](CC(C)C)C(=O)N[C@@H](CCC(=O)O)C(=O)N[C@@H](CC(C)C)C(=O)N[C@@H](CC(=O)O)C(=O)N[C@@H](CCCCN)C(=O)N[C@@H](Cc1c[nH]c2ccccc12)C(=O)N[C@@H](C)C(=O)N[C@@H](CO)C(=O)N[C@@H](CC(C)C)C(=O)N[C@@H](CC(C)C)C(=O)N[C@@H](Cc1c[nH]c2ccccc12)C(=O)N[C@@H](CC(N)=O)C(=O)N[C@@H](Cc1c[nH]c2ccccc12)C(=O)N[C@@H](Cc1ccccc1)C(=O)O` [T1144-C10], the IC50 (read-out: IC50, concentration for inhibiting HIV-1 IIIB-mediated cell fusion) was 16.8 nM and the IC90 (read-out: IC90, concentration for inhibiting HIV-1 IIIB-mediated cell fusion) was 49.7 nM.
